Test results published in patent publication US5436254A, “Carbostyril derivatives” (Otsuka Pharmaceutical Company, Ltd., priority 1989, dated 1995).

By UniProt entry, the sequences of proteins in these tests, tags left out.
UniProt P30560, whole entry: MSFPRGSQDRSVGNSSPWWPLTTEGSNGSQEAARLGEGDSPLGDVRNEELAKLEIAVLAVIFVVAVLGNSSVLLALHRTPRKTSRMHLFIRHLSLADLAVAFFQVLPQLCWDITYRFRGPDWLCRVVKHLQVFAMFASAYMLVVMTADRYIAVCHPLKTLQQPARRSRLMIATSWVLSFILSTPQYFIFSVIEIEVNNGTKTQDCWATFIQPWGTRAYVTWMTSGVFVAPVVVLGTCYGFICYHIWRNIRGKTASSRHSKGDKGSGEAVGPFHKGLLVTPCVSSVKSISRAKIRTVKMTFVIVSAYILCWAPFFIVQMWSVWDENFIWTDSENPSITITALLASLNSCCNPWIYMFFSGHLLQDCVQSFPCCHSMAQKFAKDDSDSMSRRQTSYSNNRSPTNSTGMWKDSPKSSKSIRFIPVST

Target: V1 receptor (Rattus norvegicus, UniProt P30560)
Assay: biochemical
Format: binding

Row | SMILES | IC50
1 | CN(C)CCCCOc1ccc(C(=O)N2CCC(N3C(=O)CCc4ccccc43)CC2)cc1 [Example 179, 1-{1-[4-(4-Dimethylaminobutoxy)benzoyl]-4-piperidinyl}-3,4-dihydrocarbostyril] | 250 nM
2 | CS(=O)(=O)OCCCOc1ccc(C(=O)N2CCC(N3C(=O)CCc4ccccc43)CC2)cc1 [Example 34, 1-{1-[4-(3-Methylsulfonyloxypropoxy)benzoyl]-4-piperidinyl}-3,4-dihydrocarbostyril] | 250 nM
3 | CN(C)CC(O)CCCOc1ccc(C(=O)N2CCC(N3C(=O)CCc4ccccc43)CC2)cc1 (stereo not shown) [Example 31, 1-{1-[4-(5-Dimethylamino-4-hydroxypentyloxy)benzoyl]-4-piperidinyl}-3,4-dihydrocarbostyril] | 250 nM
4 | CC(=O)NC(C)C(=O)NCCCOc1ccc(C(=O)N2CCC(N3C(=O)CCc4ccccc43)CC2)cc1 (stereo not shown) [Example 209, 1-{1-[4-(3-(2-Acetylaminopropanoylamino)propoxy)benzoyl]-4-piperidinyl}-3,4-dihydrocarbostyril] | 250 nM
